Assay results: ChEMBL document CHEMBL1641500, “Carbonic anhydrase inhibitors. Inhibition studies with anions and sulfonamides of a new cytosolic enzyme from the scleractinian coral Stylophora pistillata” (Bioorg Med Chem Lett, 2011)

The chains behind the UniProt entries cited, without tags or fusion partners. Where a name states a change or a piece, a line headed by the entry shows the natural chain unless it says otherwise.
UniProt B5SU02: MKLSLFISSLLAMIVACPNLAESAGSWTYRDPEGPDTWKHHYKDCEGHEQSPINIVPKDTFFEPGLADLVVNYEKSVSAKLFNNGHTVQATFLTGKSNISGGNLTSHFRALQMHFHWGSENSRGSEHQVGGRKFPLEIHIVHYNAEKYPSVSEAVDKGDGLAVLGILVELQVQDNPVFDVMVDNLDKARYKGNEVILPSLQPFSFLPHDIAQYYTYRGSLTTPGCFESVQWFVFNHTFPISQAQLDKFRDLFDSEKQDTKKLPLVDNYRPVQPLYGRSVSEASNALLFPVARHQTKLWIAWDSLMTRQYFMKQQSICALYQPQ
UniProt C0IX24: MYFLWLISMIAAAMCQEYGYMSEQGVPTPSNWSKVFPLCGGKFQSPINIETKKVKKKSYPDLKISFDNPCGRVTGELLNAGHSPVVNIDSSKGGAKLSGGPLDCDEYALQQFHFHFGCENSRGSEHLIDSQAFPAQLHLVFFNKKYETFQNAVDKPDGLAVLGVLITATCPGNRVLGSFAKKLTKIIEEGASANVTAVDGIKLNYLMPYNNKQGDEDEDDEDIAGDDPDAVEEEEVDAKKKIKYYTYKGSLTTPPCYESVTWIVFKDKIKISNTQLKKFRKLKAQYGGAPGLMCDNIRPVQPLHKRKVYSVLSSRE

Tests used:
[1] = target: Alpha carbonic anhydrase (Stylophora pistillata, UniProt B5SU02); test: Inhibition of Stylophora pistillata carbonic anhydrase by stopped-flow CO2 hydration assay
[2] = target: Carbonic anhydrase (Stylophora pistillata, UniProt C0IX24); test: Inhibition of Stylophora pistillata carbonic anhydrase 2 by stopped-flow CO2 hydration assay

## O=[As](O)(O)c1ccccc1
[1]
  Ki: 0.78 nM
[2]
  Ki: 0.0672 nM
